Protein sequences, listed by entry. Tags and fused reporters are not part of them. Lines headed by an entry give the natural chain unless they say otherwise; changes in a name come on top.
UniProt P30989, whole entry: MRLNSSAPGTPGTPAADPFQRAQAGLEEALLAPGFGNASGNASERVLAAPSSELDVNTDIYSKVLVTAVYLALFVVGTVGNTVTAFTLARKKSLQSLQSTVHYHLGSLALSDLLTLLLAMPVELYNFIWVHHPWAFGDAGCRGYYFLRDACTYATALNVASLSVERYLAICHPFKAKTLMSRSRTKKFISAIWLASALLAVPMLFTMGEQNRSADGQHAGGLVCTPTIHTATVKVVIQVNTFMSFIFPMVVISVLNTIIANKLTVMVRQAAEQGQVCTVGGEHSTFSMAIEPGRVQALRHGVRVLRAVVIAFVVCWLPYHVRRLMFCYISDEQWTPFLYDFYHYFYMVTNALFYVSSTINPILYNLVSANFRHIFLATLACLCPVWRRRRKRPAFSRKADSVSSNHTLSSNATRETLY
UniProt O95665: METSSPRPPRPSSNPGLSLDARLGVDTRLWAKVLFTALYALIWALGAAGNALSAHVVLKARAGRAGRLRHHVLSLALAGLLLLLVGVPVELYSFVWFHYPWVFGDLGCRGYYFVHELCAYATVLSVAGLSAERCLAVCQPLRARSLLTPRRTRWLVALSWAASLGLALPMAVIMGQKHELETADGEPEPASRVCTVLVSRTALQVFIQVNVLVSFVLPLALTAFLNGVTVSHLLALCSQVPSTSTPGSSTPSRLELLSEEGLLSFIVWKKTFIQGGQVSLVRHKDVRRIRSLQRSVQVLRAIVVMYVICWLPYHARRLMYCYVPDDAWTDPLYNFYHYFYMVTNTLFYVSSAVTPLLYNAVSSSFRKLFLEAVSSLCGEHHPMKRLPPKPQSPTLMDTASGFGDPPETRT

In publication PMC11440508, “Dually Labeled Neurotensin NTS1R Ligands for Probing Radiochemical and Fluorescence-Based Binding Assays” (Journal of Medicinal Chemistry, 2024):

Key:
[1] = target: NTS1R (Homo sapiens) (UniProt P30989); settings: cited from earlier work
[2] = target: human neurotensin receptor type 2 (hNTS2R) in homogenates of HEK293T cells (human) (UniProt O95665); test: radioligand binding; competition with [^3H]UR-MK300 at homogenates of HEK293T cells transiently transfected with hNTS2R; Tris buffer (50 mM Tris HCl, 1 mM EDTA, pH 7.4) with 0.1% BSA

Row | Substance | Ki [1] [nM] | Ki [2] [nM]
1 | NT(8–13) 8-13 (from UniProt P30990) | 0.29 | –
2 | NT(8–13) (peptide) | – | 0.62
